According to PubChem BioAssay AID1008 (NMMLSC, 2008):
The list shows a part of the results, in another mix than the full data. Activity calls are given as the source filed them. Cut-off read from the data, not from the text of the source: active = inhibition above about 40%.

Chains of the proteins cited; added tags and fusions are not shown.
UniProt Q16548, whole entry: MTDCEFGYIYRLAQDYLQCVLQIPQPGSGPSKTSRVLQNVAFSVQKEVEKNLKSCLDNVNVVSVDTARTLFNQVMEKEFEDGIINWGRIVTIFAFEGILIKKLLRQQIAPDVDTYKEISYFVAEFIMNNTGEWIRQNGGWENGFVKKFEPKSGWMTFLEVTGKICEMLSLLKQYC

Target: Bcl-2-related protein A1 (Homo sapiens) (UniProt Q16548)
Assay: Bfl-1/Bim complex disruptors – biochemical, multiplexed, bead-based flow cytometry, primary screen (AID 1008);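 note: 0% = wells without compound plus tracer and 100% = blocker peptide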
Conditions: Bim-Bfl-1 binding inhibition, at 10 µM, stronger effect = higher value

Compound | inhibition
Cc1ccc(NP(C)(=O)Oc2ccccc2)c(C)c1 (centres undefined) | inactive: -10%
COc1ccccc1OP(C)(=O)Nc1ccc(C)cc1 (centres undefined) | inactive: 10%
CCOC(=O)c1ccc(NP(C)(=O)Oc2ccccc2)cc1 (centres undefined) | inactive: 0%
Cc1cc(C)cc(OP(C)(N)=O)c1 (centres undefined) | inactive: -2%
COc1ccc(OP(C)(=O)Nc2cccc(F)c2)cc1 (centres undefined) | inactive: 0%
COc1ccccc1OP(C)(=O)Nc1cc(Cl)ccc1C (centres undefined) | inactive: -7%
O=[N+]([O-])c1ccc2c(c1)C=Nc1ccccc1O2 | inactive: -2%
Cc1cccc(C)c1OP(C)(N)=O (centres undefined) | inactive: -3%
CC(C)(C)c1ccc(OP(C)(=O)Nc2ccc(SC(F)(F)F)cc2)cc1 (centres undefined) | inactive: -1%
CCN(CC)CCCOC(=O)C(O)(c1ccccc1)c1ccccc1 | inactive: -3%
CCOC(=O)c1ccc(NP(C)(=O)Oc2ccc(OC)cc2)cc1 (centres undefined) | inactive: -11%
CCOP(C)(=S)SCC(=O)NC(C)C(=O)O (centres undefined) | inactive: 1%
CP(=O)(Nc1ccccn1)Oc1ccc(Cl)cc1 (centres undefined) | inactive: -3%
CP(=O)(Oc1ccccc1)OC(c1ccccc1)C(F)(F)F (centres undefined) | inactive: -3%
Cc1cccc(C)c1OP(C)(=O)Nc1ccc(SC(F)(F)F)cc1 (centres undefined) | inactive: 15%
Cc1cc(C)cc(OP(C)(=O)Nc2ccc(SC(F)(F)F)cc2)c1 (centres undefined) | inactive: 2%
CP(=O)(NC(=O)Nc1ccccc1)Oc1ccccc1 (centres undefined) | inactive: -5%
CP(=S)(Nn1cnnc1)Oc1ccccc1 (centres undefined) | inactive: 0%
CP(=O)(Nc1ccccc1Br)Oc1ccccc1 (centres undefined) | inactive: 0%
COc1ccccc1OP(C)(=O)Nc1ccccc1 (centres undefined) | inactive: -5%
COc1ccccc1OP(C)(=O)Nc1c(C)cccc1C (centres undefined) | inactive: -2%
CN1CCCCC1COC(=O)C1(O)c2ccccc2CCc2ccccc21 (centres undefined) | inactive: -3%
CP(=O)(Nc1ccc(SC(F)(F)F)cc1)Oc1ccccc1 (centres undefined) | inactive: -2%

Compound | inhibition
CCCOc1ccc(NP(C)(=O)Oc2ccc(Cl)cc2)cc1 (centres undefined) | inactive: 0%
Cc1nc2ccc3ccccc3c2s1.O=[N+]([O-])c1cc([N+](=O)[O-])c(O)c([N+](=O)[O-])c1 | inactive: -8%
O=[N+]([O-])c1cc([N+](=O)[O-])c(-n2nnc3ccccc32)c([N+](=O)[O-])c1 | inactive: 35%
Cc1ccc(C)c(NP(C)(=O)Oc2ccccc2)c1 (centres undefined) | inactive: -5%
CP(=O)(Nc1cccc(Br)c1)Oc1ccccc1 (centres undefined) | inactive: -4%
Cc1cc(C)cc(OP(C)(=O)Nc2ccccn2)c1 (centres undefined) | inactive: -13%
CCOC(=O)c1ccc(NP(C)(=O)Oc2cc(C)cc(C)c2)cc1 (centres undefined) | inactive: 0%
Cc1cc(C)cc(OP(C)(=O)Nc2ccc(C)cc2C)c1 (centres undefined) | inactive: -8%
CC1=NCCc2c1[nH]c1ccccc21.O=[N+]([O-])c1cc([N+](=O)[O-])c(O)c([N+](=O)[O-])c1 | inactive: 2%
CCN(CC)CCCOC(=O)C(O)(c1ccccc1)C1CCCCC1 (centres undefined) | inactive: -2%
CP(=O)(Nc1ccccc1)Oc1ccc(F)cc1 (centres undefined) | inactive: -3%
CCOC(=O)c1ccc(NP(C)(=O)Oc2ccc(F)cc2)cc1 (centres undefined) | inactive: 0%
COc1ccc(OP(C)(=O)Nc2ccc(SC(F)(F)F)cc2)cc1 (centres undefined) | inactive: -3%
O=C(OCCN1CCN(CCOCc2ccccc2)CC1)C(O)(c1ccccc1)c1ccccc1 | inactive: 3%
CP(=O)(Nc1ccccc1F)Oc1ccccc1 (centres undefined) | inactive: -13%
CC(C)c1ccc(OP(C)(=O)Nc2ccc(SC(F)(F)F)cc2)cc1 (centres undefined) | inactive: -7%
CP(=O)(Nc1ccc2c(c1)OCCO2)Oc1ccccc1 (centres undefined) | inactive: 11%
Cc1ccccc1NP(C)(=O)Nc1ccccc1C | inactive: -9%
CCOP(C)(=S)SCC(=O)NC(C)(CC)C(=O)O (centres undefined) | inactive: -7%
O=[N+]([O-])c1cc([N+](=O)[O-])c(NCC2CCS(=O)(=O)C2)c([N+](=O)[O-])c1 (centres undefined) | inactive: -3%
COc1ccc(OP(C)(=O)Nc2cccc(Br)c2)cc1 (centres undefined) | inactive: -22%
CN(C)CCOC(=O)C(O)(c1ccccc1)C1CCCCC1 (centres undefined) | inactive: 0%
COc1ccc(NP(C)(=O)Oc2ccccc2OC)cc1 (centres undefined) | inactive: -1%

Compound | inhibition
CCOC(=O)c1ccc(NP(C)(=O)Oc2ccc(Cl)cc2)cc1 (centres undefined) | inactive: -3%
CP(=O)(OC12CC3CC(CC(C3)C1)C2)OC12CC3CC(CC(C3)C1)C2 | inactive: -17%
CC(C)(C)c1ccc(OP(C)(=O)O)cc1 | inactive: 0%
COc1ccccc1OP(C)(=O)Nc1ccccc1Br (centres undefined) | inactive: -7%
CP(=O)(Nc1ccc(Cl)cc1)Oc1ccc(F)cc1 (centres undefined) | inactive: -3%
CN(C)C(=O)c1c([N+](=O)[O-])cc([N+](=O)[O-])cc1[N+](=O)[O-] | inactive: -5%
COc1ccc(OP(C)(=O)Nc2ccc(Br)cc2)cc1 (centres undefined) | inactive: -3%
CCN(CC)CC(O)COC(=O)C(O)(c1ccccc1)C1CCCCC1 (centres undefined) | inactive: -5%
CCc1ccc(OP(C)(=O)Nc2cccnc2)cc1 (centres undefined) | inactive: -5%
CP(=O)(Oc1ccccc1)N1CCOC1=O (centres undefined) | inactive: -1%
O=[N+]([O-])c1cc([N+](=O)[O-])c(Nc2ccccn2)c([N+](=O)[O-])c1 | inactive: -16%
Cc1c(NP(C)(=O)Oc2ccc(C(C)C)cc2)c(=O)n(-c2ccccc2)n1C (centres undefined) | inactive: 0%
COc1ccccc1OP(C)(=O)Nc1ccc(C)cc1C (centres undefined) | inactive: -5%
CP(=O)(Nc1ccccn1)Oc1ccccc1 (centres undefined) | inactive: -5%
CCc1ccc(OP(C)(=O)O)cc1 | inactive: -1%
COc1ccc(OP(C)(=O)Nc2ccccn2)cc1 (centres undefined) | inactive: 0%
CN(C)CCOC(=O)C(O)(c1ccccc1)C1CCCC1 (centres undefined) | inactive: -11%
Cc1nc2ccc3ccccc3c2o1.O=[N+]([O-])c1cc([N+](=O)[O-])c(O)c([N+](=O)[O-])c1 | inactive: 0%
CP(=O)(OCCOc1ccccc1)OCCOc1ccccc1 | inactive: -8%
CP(=O)(Nc1ccc(Cl)cc1Cl)Oc1ccccc1 (centres undefined) | inactive: -4%
Cc1cc(C)cc(OP(C)(=O)Nc2cccc(C(F)(F)F)c2)c1 (centres undefined) | inactive: -3%
COc1ccccc1OP(C)(=O)Nc1ccc(C)c(C)c1 (centres undefined) | inactive: -9%
COc1ccc(OP(C)(=O)Nc2ccccc2Br)cc1 (centres undefined) | inactive: -4%
